## Measured affinities in a library of Ab-14 light chain variants

Target: peptide PDVDLGDISGINAS, taken from heptad repeat 2 (HR2) of SARS-CoV-2 spike.

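Variants in AAYL50 differ from the parent at up to three CDR positions; double and triple changes were sampled at random. AlphaSeq pools MATa yeast showing the antibodies with MATalpha yeast showing the peptide. Mating (16 h, 30 °C) was followed by selection of diploids and sequencing of their barcodes. Scores were corrected for input abundance and mapped to Kd with protein pairs of known affinity run in the same pool. Mating was done three times.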

Parent: Ab-14, a human scFv built as VH, a 15-residue (Gly4Ser)3 linker, VL. Only the CDRs of the light chain vary.
VH: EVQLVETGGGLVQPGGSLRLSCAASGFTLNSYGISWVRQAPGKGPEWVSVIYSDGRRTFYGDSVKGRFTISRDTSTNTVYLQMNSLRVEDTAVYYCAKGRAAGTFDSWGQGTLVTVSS
VL: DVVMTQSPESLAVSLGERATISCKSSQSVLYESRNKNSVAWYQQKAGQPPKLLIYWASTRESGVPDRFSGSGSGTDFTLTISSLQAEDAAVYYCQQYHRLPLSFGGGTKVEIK

Variants are written as CDR1, CDR2 and CDR3 of the light chain (limits as in the source). Parent: KSSQSVLYESRNKNSVA, WASTRES, QQYHRLPLS. This list gathers variants with a substitution at S26 (VL, numbered from residue 1). Affinities are written as log10 Kd with Kd in nM; a lower number is a better binder. Replicates are averaged; those with no signal do not enter the mean. "nd" means that the variant was in the library but no mating with the target was seen in any replicate; the authors take this as a sign of poor binding, and no number exists.

With KSIHSQLYESRNKNSVA | WASTRES | QQYHRLPLS the result was 1.38 (3 of 3 replicates). Variant ISCQSVLYESRNKNSVA | WASLRES | QQYHRLPLS showed 3.38 (1 of 3 replicates). With KSRQSVLYESRNKGSVE | WASTRES | QQYHRLPLS the result was nd (0 of 3 replicates). Variant VSEQSVLYESRNKNSVV | WASTRES | QQYHRLPLS gave nd (0 of 3 replicates). Variant KSGQSVLYESRNKNSVA | WASTRED | GQYHRLPLS showed 2.36 (3 of 3 replicates). Variant KSEQSVKYESRNANSVA | WASTRES | QQYHRLPLS showed 1.74 (3 of 3 replicates). For KSGQSVLYESFNKNSVA | WASTRES | QQYHRLPLF, the assay gave 4.53 (1 of 3 replicates). Variant KSCSSVLYESRNKNSVA | WASTRGS | QQYHRLPLS gave 3.01 (3 of 3 replicates).

Variant KSAQSVLYPSRNKNSVA | WASTRES | QQYHRLSLS gave nd (0 of 3 replicates). With KSAQSVLYESRNKNSVA | WNSTRES | QQYHRLPRS the result was nd (0 of 3 replicates). For KSPQSVLYESRNKNSVA | WASTRES | SQYHRLPLS, the assay gave 2.34 (3 of 3 replicates). Variant KSQQSVLYESRNKNSVA | WASTRES | QQYHSLPNS showed nd (0 of 3 replicates). For KSWKSVLYESRNKNSEA | WASTRES | QQYHRLPLS, the assay gave nd (0 of 3 replicates). For PSTQSVLYESRNKMSVA | WASTRES | QQYHRLPLS, the assay gave nd (0 of 3 replicates). Variant KSLQSVLYHSRNKNSVA | WASTRES | QTYHRLPLS gave 3.35 (3 of 3 replicates). For KSQQSVLYESRNKNSVI | TASTRES | QQYHRLPLS, the assay gave 4.54 (1 of 3 replicates).

Variant MSKQSVLYESRNKNSVA | WASTRES | QQYERLPLS gave 3.33 (3 of 3 replicates). Variant KSVQSVLYESRNWNSVA | WASTRES | QQSHRLPLS gave 5.01 (2 of 3 replicates). For DSFQSVLYESRAKNSVA | WASTRES | QQYHRLPLS, the assay gave nd (0 of 3 replicates). With KSTQSVLYESRNINSGA | WASTRES | QQYHRLPLS the result was nd (0 of 3 replicates). Variant KSQQSVLYESRNKPSVA | WASTRES | QQYGRLPLS gave 2.40 (3 of 3 replicates). Variant KSHQSVLYESRNKHSVA | WRSTRES | QQYHRLPLS gave nd (0 of 3 replicates). Variant KSKQSVLYESYNKNSVA | WASTRES | QQYHNLPLS showed 1.23 (3 of 3 replicates). Variant KSMISVLYESRNKNSVA | WASTRES | QQPHRLPLS showed 2.26 (3 of 3 replicates).

Variant KSNQSVLYESRNKNSVA | GASTRES | QQYHRGPLS gave 2.51 (1 of 3 replicates). With KSFQSVLYESRNQNSVA | WASTRES | QDYHRLPLS the result was 1.52 (3 of 3 replicates). For KSNQSVLYESRNKNSVA | WASTHES | SQYHRLPLS, the assay gave 5.50 (2 of 3 replicates). For KSQQSVLYESRHKCSVA | WASTRES | QQYHRLPLS, the assay gave 2.44 (3 of 3 replicates). Variant KSVQSVLYEQRNKNSVA | WASTRES | QQYHRLPLS gave 2.01 (3 of 3 replicates). Variant KSPQSVLHESRNKNSVA | WASTRES | QQYLRLPLS gave 0.91 (3 of 3 replicates). With KSYQSVLYESRNKNSVA | WKSTRES | QTYHRLPLS the result was nd (0 of 3 replicates).

The 3 strongest on average among those seen in every replicate, once more:

CDR-L1	CDR-L2	CDR-L3	mean, log10 nM	detected
KSPQSVLHESRNKNSVA	WASTRES	QQYLRLPLS	0.91	3 of 3
KSKQSVLYESYNKNSVA	WASTRES	QQYHNLPLS	1.23	3 of 3
KSIHSQLYESRNKNSVA	WASTRES	QQYHRLPLS	1.38	3 of 3

Three control strains display no target. For library AAYL50, 18% of the pairings with them gave a signal, with a median of 4.19 and one signal in twenty below 2.99, so weak values seen in few replicates may be background. Parent in this assay: reference entry 0.65, copy in this library 1.68.

Source: Engelhart et al. 2022 (doi:10.1038/s41597-022-01779-4), MIT Lincoln Laboratory and A-Alpha Bio; data file from the FLAb repository.